Columns and labels:
[1] = tested on: the other three class I isoforms; assay: Enzyme residence time, other class I PI3K isoforms; type: binding
PI3K p110δ = PI3K p110δ (Homo sapiens, UniProt O00329); type: biochemical
PI3K p110γ = PI3K p110γ (Homo sapiens, UniProt P48736)
[2] = tested on: autoantibody-mediated cutaneous lesions; assay: Immunization-induced mouse model of epidermolysis bullosa acquista (EBA); type: in vivo, B6.SJL-H2s mice; settings: 6 week treatment; LAS191954 3 mg/kg/day or methylprednisolone 20 mg/kg/day orally
Procedure: Induction of experimental EBA was performed as described in Iwata H, Bieber K, Tiburzy B et al., J Immunol. 2013; 191:2978-2988. Briefly, 6-10 week B6.SJL-H2s mice were immunized with an emulsion of a recombinant protein encompassing the vWFA2 binding domain of mouse type VII collagen (COL7) in adjuvant (Titermax). After immunization, mice were weekly evaluated for the presence and extend of clinical disease, measured as percentage of body surface affected by skin lesions (erythema, blisters, erosions and crusts).
Treatments were carried out over a 6-week period, and mice were evaluated for the extend of clinical disease (primary endpoint) weekly. Clinical manifestations were scored 0 to 5, corresponding to 0%, <1%, ≧1% to <5%, ≧5% to <10%, ≧10% to <20% of body surface area affected, respectively. Area under Curve (AUC) was calculated from the score at inclusion, 1, 2, 3, 4, 5 and 6 weeks after allocation to treatment. For better comparability between experiments, the affected body surface area at weeks 1-6 was related to that at inclusion (set at 1).
Body weight was monitored weekly during treatment.

Amino acid sequences for entries named in this document (tags omitted). A change or cut given only in a name is not applied to a line headed by its entry.
UniProt O00329: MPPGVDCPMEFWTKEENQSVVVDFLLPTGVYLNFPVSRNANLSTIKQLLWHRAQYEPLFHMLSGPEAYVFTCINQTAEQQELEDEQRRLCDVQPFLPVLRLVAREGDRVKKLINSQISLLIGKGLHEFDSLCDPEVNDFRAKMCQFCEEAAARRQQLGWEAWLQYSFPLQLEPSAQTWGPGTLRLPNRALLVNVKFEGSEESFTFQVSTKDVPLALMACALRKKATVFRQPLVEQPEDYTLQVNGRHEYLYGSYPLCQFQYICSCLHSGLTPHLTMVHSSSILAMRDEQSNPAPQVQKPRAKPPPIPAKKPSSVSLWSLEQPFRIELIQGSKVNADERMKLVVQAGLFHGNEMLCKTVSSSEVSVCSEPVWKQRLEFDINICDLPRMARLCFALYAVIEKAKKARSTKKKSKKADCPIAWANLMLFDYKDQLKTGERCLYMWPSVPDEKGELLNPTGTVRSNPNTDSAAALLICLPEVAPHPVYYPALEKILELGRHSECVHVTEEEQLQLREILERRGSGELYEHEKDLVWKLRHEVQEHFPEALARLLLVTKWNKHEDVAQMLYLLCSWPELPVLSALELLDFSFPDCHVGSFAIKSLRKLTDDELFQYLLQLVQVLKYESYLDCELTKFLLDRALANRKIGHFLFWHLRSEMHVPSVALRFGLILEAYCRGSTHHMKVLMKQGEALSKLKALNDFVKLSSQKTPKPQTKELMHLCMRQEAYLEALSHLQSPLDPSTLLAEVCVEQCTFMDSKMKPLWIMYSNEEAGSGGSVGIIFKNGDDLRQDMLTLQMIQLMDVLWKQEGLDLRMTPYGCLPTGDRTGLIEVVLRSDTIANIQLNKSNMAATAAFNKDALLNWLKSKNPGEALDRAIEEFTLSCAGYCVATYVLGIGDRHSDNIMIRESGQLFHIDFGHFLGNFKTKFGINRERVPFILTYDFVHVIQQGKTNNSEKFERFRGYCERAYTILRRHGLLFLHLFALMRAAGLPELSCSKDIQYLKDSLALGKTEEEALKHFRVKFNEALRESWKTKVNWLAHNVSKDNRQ
UniProt P48736: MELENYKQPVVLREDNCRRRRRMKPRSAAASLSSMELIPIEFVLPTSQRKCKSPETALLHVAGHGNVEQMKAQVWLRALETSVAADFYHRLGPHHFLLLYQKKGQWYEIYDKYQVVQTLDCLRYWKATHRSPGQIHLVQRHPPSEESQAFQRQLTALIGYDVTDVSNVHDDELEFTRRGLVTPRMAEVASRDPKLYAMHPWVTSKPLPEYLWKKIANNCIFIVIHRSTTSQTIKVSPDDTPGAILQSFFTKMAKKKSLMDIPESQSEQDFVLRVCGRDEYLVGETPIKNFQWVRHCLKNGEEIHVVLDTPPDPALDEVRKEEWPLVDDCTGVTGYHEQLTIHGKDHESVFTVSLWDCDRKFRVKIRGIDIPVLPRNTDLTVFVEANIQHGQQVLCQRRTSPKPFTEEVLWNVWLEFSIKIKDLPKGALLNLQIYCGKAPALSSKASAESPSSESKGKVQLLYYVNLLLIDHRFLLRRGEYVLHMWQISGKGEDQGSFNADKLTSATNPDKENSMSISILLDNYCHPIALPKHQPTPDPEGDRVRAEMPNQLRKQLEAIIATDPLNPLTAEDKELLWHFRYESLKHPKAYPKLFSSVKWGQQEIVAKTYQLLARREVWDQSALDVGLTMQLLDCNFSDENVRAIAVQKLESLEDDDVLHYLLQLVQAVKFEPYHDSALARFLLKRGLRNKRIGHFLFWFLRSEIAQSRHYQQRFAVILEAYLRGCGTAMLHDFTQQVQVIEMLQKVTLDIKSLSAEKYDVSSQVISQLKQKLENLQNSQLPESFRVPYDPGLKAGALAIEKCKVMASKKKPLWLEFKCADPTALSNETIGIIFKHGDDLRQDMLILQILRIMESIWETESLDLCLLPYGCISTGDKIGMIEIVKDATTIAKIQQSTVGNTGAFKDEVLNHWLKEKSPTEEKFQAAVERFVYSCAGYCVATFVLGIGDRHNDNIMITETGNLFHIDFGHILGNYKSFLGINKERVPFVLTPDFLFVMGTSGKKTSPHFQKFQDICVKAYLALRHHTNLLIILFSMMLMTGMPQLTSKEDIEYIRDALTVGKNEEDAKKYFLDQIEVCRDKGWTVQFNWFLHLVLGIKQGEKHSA
UniProt P42338: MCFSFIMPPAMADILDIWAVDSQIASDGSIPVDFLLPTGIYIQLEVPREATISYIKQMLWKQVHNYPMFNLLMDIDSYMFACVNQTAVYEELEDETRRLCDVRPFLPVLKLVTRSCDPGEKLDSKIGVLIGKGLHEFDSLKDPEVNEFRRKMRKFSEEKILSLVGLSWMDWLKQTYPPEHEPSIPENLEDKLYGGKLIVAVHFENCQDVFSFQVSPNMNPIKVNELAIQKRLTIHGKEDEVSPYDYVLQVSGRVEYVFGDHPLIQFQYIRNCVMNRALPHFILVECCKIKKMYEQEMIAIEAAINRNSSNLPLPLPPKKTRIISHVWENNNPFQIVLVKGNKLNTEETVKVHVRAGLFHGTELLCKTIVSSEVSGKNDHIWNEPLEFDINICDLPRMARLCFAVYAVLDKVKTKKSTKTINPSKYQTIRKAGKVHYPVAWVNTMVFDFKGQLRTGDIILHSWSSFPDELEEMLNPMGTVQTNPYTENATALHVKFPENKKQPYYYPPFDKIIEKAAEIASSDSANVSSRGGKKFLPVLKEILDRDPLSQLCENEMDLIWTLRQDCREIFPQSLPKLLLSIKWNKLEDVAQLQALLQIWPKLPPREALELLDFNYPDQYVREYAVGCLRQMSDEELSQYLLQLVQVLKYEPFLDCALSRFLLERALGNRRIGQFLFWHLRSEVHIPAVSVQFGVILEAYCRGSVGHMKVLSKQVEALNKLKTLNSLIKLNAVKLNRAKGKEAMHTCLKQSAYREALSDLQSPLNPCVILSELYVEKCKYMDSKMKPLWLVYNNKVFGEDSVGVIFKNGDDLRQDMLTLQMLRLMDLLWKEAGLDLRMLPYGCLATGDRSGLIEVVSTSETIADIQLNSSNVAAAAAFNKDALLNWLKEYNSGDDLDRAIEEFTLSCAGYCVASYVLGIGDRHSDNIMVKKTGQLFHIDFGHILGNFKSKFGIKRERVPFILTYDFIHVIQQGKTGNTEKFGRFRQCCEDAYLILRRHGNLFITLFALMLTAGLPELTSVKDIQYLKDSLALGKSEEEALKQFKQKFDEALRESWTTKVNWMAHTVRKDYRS
UniProt P42336, whole entry: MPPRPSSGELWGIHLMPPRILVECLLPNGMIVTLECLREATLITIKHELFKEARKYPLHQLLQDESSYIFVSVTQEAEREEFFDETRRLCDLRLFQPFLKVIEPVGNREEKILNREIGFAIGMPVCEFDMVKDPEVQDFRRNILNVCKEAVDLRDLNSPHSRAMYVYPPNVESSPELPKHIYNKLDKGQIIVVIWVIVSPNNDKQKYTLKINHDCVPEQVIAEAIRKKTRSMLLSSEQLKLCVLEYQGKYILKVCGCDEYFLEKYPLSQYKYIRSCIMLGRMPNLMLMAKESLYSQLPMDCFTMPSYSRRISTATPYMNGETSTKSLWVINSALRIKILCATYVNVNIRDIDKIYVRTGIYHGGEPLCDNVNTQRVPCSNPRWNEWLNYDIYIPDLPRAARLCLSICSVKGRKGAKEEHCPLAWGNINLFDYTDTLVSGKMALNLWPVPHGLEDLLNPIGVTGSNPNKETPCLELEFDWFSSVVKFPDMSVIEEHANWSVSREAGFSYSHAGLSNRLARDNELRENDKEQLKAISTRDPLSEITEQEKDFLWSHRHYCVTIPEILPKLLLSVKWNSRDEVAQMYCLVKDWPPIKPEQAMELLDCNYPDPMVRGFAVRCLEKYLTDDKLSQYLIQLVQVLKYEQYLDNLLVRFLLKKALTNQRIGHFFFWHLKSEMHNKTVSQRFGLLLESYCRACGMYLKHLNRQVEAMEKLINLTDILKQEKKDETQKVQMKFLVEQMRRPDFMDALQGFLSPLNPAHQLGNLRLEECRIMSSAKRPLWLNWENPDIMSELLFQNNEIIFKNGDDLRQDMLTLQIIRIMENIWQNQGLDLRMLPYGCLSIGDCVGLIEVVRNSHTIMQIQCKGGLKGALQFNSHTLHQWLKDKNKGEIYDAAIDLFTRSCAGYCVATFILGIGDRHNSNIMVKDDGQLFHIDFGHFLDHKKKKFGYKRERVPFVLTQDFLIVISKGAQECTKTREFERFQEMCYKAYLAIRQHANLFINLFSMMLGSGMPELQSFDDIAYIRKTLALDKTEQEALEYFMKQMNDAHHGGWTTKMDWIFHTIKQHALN

PI3K p110β = PI3K p110β (Homo sapiens, UniProt P42338)
PI3K p110α = PI3K p110α (Homo sapiens, UniProt P42336)
PI3Kβ = PI3Kβ (Homo sapiens, UniProt P42338); settings: HUVEC (PI3Kβ) versus THP-1 (PI3Kδ)
PI3Kδ = PI3Kδ (Homo sapiens, UniProt O00329); assay: PI3Kδ enzyme residence time; type: binding; settings: p110δ (printed p1105)

C[C@H](Nc1ncnc(N)c1C#N)c1nn2ccc(C#N)c2c(=O)n1-c1ccccc1 [LAS191954, (S)-2-(1-(6-amino-5-cyanopyrimidin-4-ylamino)ethyl)-4-oxo-3-phenyl-3,4-dihydropyrrolo[1,2-f][1,2,4]triazine-5-carbonitrile]
residence time [1]: < 1.4 min
Selectivity vs PI3Kδ (PI3K p110δ): 1 fold
Selectivity vs PI3Kδ (PI3K p110γ): 28 fold
clinical severity (body surface area affected by skin lesions relative to inclusion) versus vehicle [2]: progressively and significantly (p<0.001 for weeks 4, 5 and 6) reduced the clinical severity
Selectivity vs PI3Kδ (PI3K p110β): 37 fold
Selectivity vs PI3Kδ (PI3K p110α): 3198 fold
cellular selectivity for the δ isoform (PI3Kβ): 38 fold
residence time (time interval in which dissociation of 50% of the inhibitor occurs) (PI3Kδ): 17 min
residence time (PI3Kδ; read-out: residence time (time interval in which dissociation of 50% of the inhibitor occurs)): 12 min

Reference: patent publication US20170151264A1, “COMBINATION” (Almirall, S.A., priority 2014, published 2017)
